Legend:
[1] = target: cyclin B–WEE1 interaction (Homo sapiens, UniProt P14635); test: Cyclin B1 immunoprecipitation, WEE1 binding; format: cell-based; settings: NCI-H1048, 300 nM, 2 h
[2] = target: cyclin B–MYT1 interaction (Homo sapiens, UniProt P14635); test: Cyclin B1 immunoprecipitation, MYT1 binding; format: cell-based; settings: NCI-H1048, 300 nM, 2 h

By UniProt entry, the sequences of proteins in these tests, tags left out.
UniProt P14635, whole entry: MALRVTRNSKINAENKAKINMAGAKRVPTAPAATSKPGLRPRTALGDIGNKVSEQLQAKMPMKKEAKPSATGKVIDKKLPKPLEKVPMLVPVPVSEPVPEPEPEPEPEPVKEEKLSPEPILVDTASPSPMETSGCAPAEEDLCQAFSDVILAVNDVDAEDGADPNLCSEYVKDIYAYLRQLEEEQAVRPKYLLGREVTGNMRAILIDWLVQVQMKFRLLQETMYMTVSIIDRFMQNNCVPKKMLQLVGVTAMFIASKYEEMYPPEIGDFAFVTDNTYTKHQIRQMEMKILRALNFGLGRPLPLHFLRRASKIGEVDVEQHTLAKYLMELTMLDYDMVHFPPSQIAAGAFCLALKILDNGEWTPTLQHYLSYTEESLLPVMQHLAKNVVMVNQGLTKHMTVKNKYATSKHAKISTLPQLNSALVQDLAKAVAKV

CC(C)C[C@@H]1NC(=O)[C@@H](N(C)C(=O)[C@@H](NC(=O)[C@@H]2C[C@@H](F)CN2C(=O)C2(C(F)(F)F)CC(F)(F)C2)C2CC2)CCCCNC(=O)C(C)(C)NC(=O)[C@H](Cc2cc(Cl)nn2-c2ccccc2)N(C)C1=O [CIRc-019]
cyclin B–WEE1 interaction (co-immunoprecipitation) [1]: also disrupted this interaction
cyclin B–MYT1 interaction (co-immunoprecipitation) [2]: disrupted the cyclin B–MYT1 interaction
